# Membrane permeability of cyclic peptides

PAMPA measures passive passage through an artificial lipid membrane. Permeability is given as log10 of P in cm/s; higher (less negative) is more permeable.

* CC(C)C[C@@H]1C(=O)N[C@@H](Cc2ccccc2)C(=O)N2CCC[C@H]2C(=O)N[C@@H](Cc2ccccc2)CC(=O)N(C)[C@@H](CC(C)C)C(=O)N[C@@H](Cc2ccccc2)CC(=O)N2CCC[C@H]2C(=O)N1C: PAMPA -5.97 (log10 cm/s)
* CC(C)C[C@@H]1C(=O)N[C@H](CC(C)C)C(=O)N2CCC[C@H]2C(=O)N(C)[C@@H](CC(C)C)C(=O)N[C@@H](Cc2ccccc2)C(=O)N[C@@H](Cc2ccccc2)CC(=O)N1C: PAMPA -5.11 (log10 cm/s)
* CC(C)C[C@@H]1NC(=O)[C@@H](CC(C)C)N(C)C(=O)[C@@H](C)NC(=O)[C@H](Cc2ccccc2)NC(=O)[C@@H](CC(C)C)N(C)C(=O)[C@H]2CCCN2C1=O: PAMPA -4.89 (log10 cm/s)
* CC(C)C[C@@H]1C(=O)N2CCC[C@H]2C(=O)N(C)[C@@H](CC(C)C)C(=O)N[C@@H](Cc2ccccc2)C(=O)N2CCC[C@H]2C(=O)N(C)[C@H](C)C(=O)N[C@H](CC(C)C)C(=O)N1C: PAMPA -5.33 (log10 cm/s)
* CC(C)C[C@@H]1C(=O)N[C@@H](Cc2ccccc2)C(=O)N2CCC[C@@H]2C(=O)N(C)[C@H](C)C(=O)N(Cc2ccccc2)CC(=O)N[C@@H](Cc2ccccc2)CC(=O)N2CCC[C@H]2C(=O)N1C: PAMPA -5.63 (log10 cm/s)
* CC(C)C[C@@H]1C(=O)N[C@@H](Cc2ccccc2)CC(=O)N2CCC[C@@H]2C(=O)N(C)[C@@H](CC(C)C)C(=O)N[C@@H](Cc2ccccc2)C(=O)N2CCC[C@H]2C(=O)N[C@@H](C)C(=O)N1C: PAMPA -6.23 (log10 cm/s)
* CC(C)C[C@@H]1NC(=O)[C@H]2CCCN2C(=O)CN(Cc2ccccc2)C(=O)[C@H](CC(C)C)NC(=O)C[C@H](Cc2ccccc2)NC(=O)[C@@H]2CCCN2C(=O)[C@H](Cc2ccccc2)NC1=O: PAMPA -5.63 (log10 cm/s)
* CC(C)C[C@@H]1NC(=O)[C@@H](CC(C)C)NC(=O)[C@@H](C)N(C)C(=O)[C@H]2CCCN2C(=O)[C@H](Cc2ccccc2)NC(=O)[C@@H](CC(C)C)N(C)C(=O)[C@@H]2CCCN2C1=O: PAMPA -5.58 (log10 cm/s)
* CC(C)C[C@H]1NC(=O)[C@@H]2CCCN2C(=O)[C@@H](CC(C)C)NC(=O)[C@H](CC(C)C)N(C)C(=O)[C@@H](C)N(C)C(=O)[C@@H]2CCCN2C(=O)[C@H](Cc2ccccc2)NC1=O: PAMPA -6.43 (log10 cm/s)
* CC(C)C[C@@H]1NC(=O)[C@@H](C)NC(=O)[C@@H]2CCCN2C(=O)[C@H](Cc2ccccc2)NC(=O)[C@H](CC(C)C)N(C)C(=O)[C@H]2CCCN2C(=O)CN(Cc2ccccc2)C1=O: PAMPA -5.80 (log10 cm/s)
* CC(C)C[C@@H]1C(=O)N2CCC[C@@H]2C(=O)N[C@H](CC(C)C)C(=O)N[C@@H](Cc2ccccc2)C(=O)N2CCC[C@@H]2C(=O)N(C)[C@@H](C)C(=O)N(C)[C@@H](CC(C)C)C(=O)N1C: PAMPA -6.40 (log10 cm/s)
* CC(C)C[C@@H]1C(=O)N(C)[C@H](CC(C)C)C(=O)N2CCC[C@H]2C(=O)N(C)[C@H](CC(C)C)C(=O)N[C@@H](Cc2ccccc2)C(=O)N[C@@H](Cc2ccccc2)CC(=O)N1C: PAMPA -5.16 (log10 cm/s)
* CC(C)C[C@@H]1C(=O)N[C@@H](Cc2ccccc2)CC(=O)N2CCC[C@@H]2C(=O)N(C)[C@H](CC(C)C)C(=O)N[C@@H](Cc2ccccc2)C(=O)N(C)[C@H](C)C(=O)N1C: PAMPA -5.58 (log10 cm/s)
* CC(C)C[C@@H]1C(=O)N2CCC[C@@H]2C(=O)N[C@H](CC(C)C)C(=O)N[C@@H](Cc2ccccc2)C(=O)N(C)[C@H](C)C(=O)N(C)[C@@H](CC(C)C)C(=O)N1C: PAMPA -5.09 (log10 cm/s)
* CC(C)C[C@@H]1C(=O)N[C@@H](Cc2ccccc2)C(=O)N(C)[C@H](C)C(=O)N[C@H](CC(C)C)C(=O)N(Cc2ccccc2)CC(=O)N2CCC[C@H]2C(=O)N1C: PAMPA -5.30 (log10 cm/s)
* CC(C)C[C@@H]1NC(=O)[C@@H]2CCCN2C(=O)CN(Cc2ccccc2)C(=O)[C@H](CC(C)C)NC(=O)[C@@H](C)N(C)C(=O)[C@H](Cc2ccccc2)NC1=O: PAMPA -5.22 (log10 cm/s)
* CC(C)C[C@@H]1C(=O)N[C@H](CC(C)C)C(=O)N2CCC[C@H]2C(=O)N(Cc2ccccc2)CC(=O)N[C@@H](Cc2ccccc2)C(=O)N(C)[C@H](C)C(=O)N1C: PAMPA -4.94 (log10 cm/s)

Excerpt, the final 2 entries:

* CC(C)C[C@@H]1NC(=O)[C@@H]2CCCN2C(=O)CN(Cc2ccccc2)C(=O)[C@H](CC(C)C)NC(=O)[C@@H](C)N(C)C(=O)[C@H](Cc2ccccc2)NC1=O: PAMPA -5.22 (log10 cm/s)
* CC(C)C[C@@H]1C(=O)N[C@H](CC(C)C)C(=O)N2CCC[C@H]2C(=O)N(Cc2ccccc2)CC(=O)N[C@@H](Cc2ccccc2)C(=O)N(C)[C@H](C)C(=O)N1C: PAMPA -4.94 (log10 cm/s)

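Lipid, pH, incubation time, direction and concentration are not recorded in the data file. Other peptides of the study may be missing here. Peptides that the database sets to -10, its floor, are left out.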

Data: CycPeptMPDB; original report Townsend et al. 2020, doi:10.26434/chemrxiv.13335941.v1.